ChEMBL document CHEMBL1151785, “Oleanolic acid and its derivatives: new inhibitor of protein tyrosine phosphatase 1B with cellular activities” (Bioorg Med Chem, 2008)
pIC50: −log10 of the molar value.

Target: T1, Tyrosine-protein phosphatase non-receptor type 1 (Homo sapiens, UniProt P18031)
T1 sequence (P18031 whole entry): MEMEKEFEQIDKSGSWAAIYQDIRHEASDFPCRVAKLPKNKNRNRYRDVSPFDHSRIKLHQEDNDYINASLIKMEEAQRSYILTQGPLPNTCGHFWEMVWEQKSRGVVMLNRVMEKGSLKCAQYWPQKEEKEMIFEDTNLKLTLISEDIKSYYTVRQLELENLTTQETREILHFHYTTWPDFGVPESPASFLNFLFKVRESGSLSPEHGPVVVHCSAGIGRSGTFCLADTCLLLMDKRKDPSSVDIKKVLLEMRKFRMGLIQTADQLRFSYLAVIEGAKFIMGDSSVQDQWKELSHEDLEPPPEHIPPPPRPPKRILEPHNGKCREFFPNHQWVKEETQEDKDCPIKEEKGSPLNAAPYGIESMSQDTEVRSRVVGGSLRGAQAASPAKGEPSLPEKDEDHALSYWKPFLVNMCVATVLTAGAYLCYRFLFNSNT
Test: Inhibition of PTP1B by pNPP assay

With `CC1(C)[C@@H](O)CC[C@]2(C)[C@H]3C(=O)C=C4[C@@H]5C[C@@](C)(C(=O)O)CC[C@]5(C)CC[C@@]4(C)[C@]3(C)CC[C@@H]12` [ENOXOLONE] the pIC50 was < 4.70.
